Our source for the LC50 values is paper PMC6479714, “Multiplex Analysis Platform for Endocrine Disruption Prediction Using Zebrafish” (International Journal of Molecular Sciences, 2019).

The nature of this data set: acute toxicity test from 48–120 hpf based on the OECD FET test. Conditions: zebrafish, in vivo.

The LC50 is the concentration that kills 50% of the test population. Higher therefore signals lower toxicity.

In the case of `C[C@]12CC[C@H]3[C@@H](CCC4=CC(=O)CC[C@@]43C)[C@@H]1CC[C@@H]2O` [TES, testosterone], the LC50 is 0.0778 mM.

The molecule `Cn1cc[nH]c1=S` [MMI, methimazole] returned an LC50 of 15.9 mM.
